From patent publication US11912716B2 (priority 2018, dated 2024)

Molecular target: δ opioid receptor (Homo sapiens (Human), UniProt P41143)
Test: biochemical
Details: CHO cell membranes

SMILES: CC(=O)O[C@H]1[C@H](OC(C)=O)[C@H]([C@@](C)(O)CC[C@@H]2OC(C)(C)[C@H]3CC[C@]2(C)O3)[C@@]2(C)CC[C@@H]3OC(C)(C)[C@H](OC(C)=O)CC[C@@]3(C)[C@H]12 [3,12,13-triacetyl limaxol A, (3R,5aS,7aS,8R,9R,10R,10aR,10bS)-dodecahydro-8-((S)-2-hydroxy-4-((1S,2S,5R)-1,4,4-trimethyl-3,8-dioxa-bicyclo[3.2.1]octan-2-yl)butan-2-yl)-4,4,7a,10b-tetramethyl-1H-indeno[5,4-b]oxepine-3,9,10-triol triacetate]
- Ki (Ki for δ opioid receptor as printed in the text, 3H-DPDPE): 47700 ± 21200 nM
- Ki (δ binding affinity Ki (nM), 1.0-1.1 nM 3H-DPDPE): 4770 ± 2130 nM
